Data: PubChem BioAssay (NCI)
Values joined by “and” are separate entries in the source; they are usually repeats but may differ in a detail not shown here. Equal values may be shown once. This is a selection; strong and weak results do not stand in their true shares.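 The test compound was applied at a single concentration to cells in 96-well plates for 48 hours, and percent growth was recorded.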 Active and inactive are the calls of the source. How the source made its calls: active means growth percent below 10; inactive means the rest.

How the values were obtained:
Test in all cases: NCI-60 one-dose screen, 48 h (100 = growth as untreated, 0 = no growth, -100 = all killed)
Details in all cases: 10 µM
NCI-H23 lung = system: NCI-H23 lung
NCI-H226 lung = system: NCI-H226 lung
NCI-H322M lung = system: NCI-H322M lung
HOP-62 NSCLC = system: HOP-62 NSCLC
NCI-H460 lung = system: NCI-H460 lung
HOP-92 NSCLC = system: HOP-92 NSCLC
NCI-H522 lung = system: NCI-H522 lung
A549/ATCC NSCLC = system: A549/ATCC NSCLC
786-0 renal = system: 786-0 renal
COLO 205 colon = system: COLO 205 colon
DU-145 prostate = system: DU-145 prostate
K-562 leukemia = system: K-562 leukemia
MALME-3M melanoma = system: MALME-3M melanoma
MDA-MB-231 breast = system: MDA-MB-231 breast
RXF 393 renal = system: RXF 393 renal
SF-268 CNS = system: SF-268 CNS
SF-295 CNS = system: SF-295 CNS
SF-539 CNS = system: SF-539 CNS
UACC-257 melanoma = system: UACC-257 melanoma
M14 melanoma = system: M14 melanoma

Measured: growth

COc1ccc(N)cc1CN(CCCl)CCCl
inactive: NCI-H23 lung 71.6% | NCI-H226 lung 77.9% | NCI-H322M lung 101% | HOP-62 NSCLC 60.8% | NCI-H460 lung 46.3% | HOP-92 NSCLC 62.7% | NCI-H522 lung 44.9% | A549/ATCC NSCLC 69.7% | 786-0 renal 57.6% | COLO 205 colon 59.6% | DU-145 prostate 93.5% | K-562 leukemia 74.4% | MALME-3M melanoma 96.5% | MDA-MB-231 breast 95% | RXF 393 renal 88.2% | SF-268 CNS 75.7% | SF-295 CNS 89% | SF-539 CNS 65% | UACC-257 melanoma 81.1% | M14 melanoma 71.9%

Cc1ccc(NC2(C(N)=O)CCNCC2)cc1
inactive: NCI-H23 lung 93.7% | NCI-H226 lung 98.5% | NCI-H322M lung 103% | HOP-62 NSCLC 105% | NCI-H460 lung 109% | HOP-92 NSCLC 91.4% | NCI-H522 lung 53.1% | A549/ATCC NSCLC 99.2% | 786-0 renal 95.4% | COLO 205 colon 114% | DU-145 prostate 111% | K-562 leukemia 107% | MALME-3M melanoma 99.6% | MDA-MB-231 breast 96.7% | RXF 393 renal 103% | SF-268 CNS 101% | SF-295 CNS 98.3% | SF-539 CNS 105% | UACC-257 melanoma 104% | M14 melanoma 98.8%

N#CC(C#N)=Cc1ccc(N(CCCl)CCCl)cc1
inactive: NCI-H23 lung 69.3% | NCI-H226 lung 50% | NCI-H322M lung 108% | HOP-62 NSCLC 75.2% | NCI-H460 lung 32.3% | HOP-92 NSCLC 97.1% | NCI-H522 lung 70.2% | A549/ATCC NSCLC 85.7% | 786-0 renal 71.7% | COLO 205 colon 106% | DU-145 prostate 68.1% | K-562 leukemia 75.9% | MALME-3M melanoma 93.3% | MDA-MB-231 breast 97.4% | RXF 393 renal 82.7% | SF-268 CNS 78.1% | SF-295 CNS 86.8% | SF-539 CNS 76.1% | UACC-257 melanoma 87.1% | M14 melanoma 87.1%

ClCCN(CCCl)CCc1ccccc1
inactive: NCI-H23 lung 97.2% | NCI-H226 lung 96.8% | NCI-H322M lung 93.6% | HOP-62 NSCLC 103% | NCI-H460 lung 94.6% | HOP-92 NSCLC 107% | NCI-H522 lung 79.6% | A549/ATCC NSCLC 93% | 786-0 renal 103% | COLO 205 colon 111% | DU-145 prostate 109% | K-562 leukemia 101% | MALME-3M melanoma 120% | MDA-MB-231 breast 81.1% | RXF 393 renal 119% | SF-268 CNS 105% | SF-295 CNS 125% | SF-539 CNS 95.6% | UACC-257 melanoma 93.1% | M14 melanoma 106%

NC(=O)C1(Nc2ccccc2)CCNCC1
inactive: NCI-H23 lung 102% | NCI-H226 lung 97.6% | NCI-H322M lung 105% | HOP-62 NSCLC 101% | NCI-H460 lung 117% | HOP-92 NSCLC 98.2% | NCI-H522 lung 83.4% | A549/ATCC NSCLC 99.4% | 786-0 renal 94.9% | COLO 205 colon 115% | DU-145 prostate 116% | K-562 leukemia 107% | MALME-3M melanoma 106% | MDA-MB-231 breast 104% | RXF 393 renal 110% | SF-268 CNS 98.9% | SF-295 CNS 102% | SF-539 CNS 95.4% | UACC-257 melanoma 103% | M14 melanoma 96.5%

NC(Cc1cccc(N(CCCl)CCCl)c1)C(=O)O (stereo not drawn)
inactive: NCI-H23 lung 100% and 101% | NCI-H226 lung 86.4% and 89% | NCI-H322M lung 106% and 97.8% | HOP-62 NSCLC 104% and 95.9% | NCI-H460 lung 67.5% and 87% | HOP-92 NSCLC 90% and 94.6% | NCI-H522 lung 88.1% and 93.5% | A549/ATCC NSCLC 101% and 98.9% | 786-0 renal 107% and 105% | COLO 205 colon 98.5% and 103% | DU-145 prostate 104% and 106% | K-562 leukemia 120% and 104% | MALME-3M melanoma 88.9% and 87.7% | MDA-MB-231 breast 90.1% and 94.4% | RXF 393 renal 83.3% and 97.8% | SF-268 CNS 91.2% and 94.6% | SF-539 CNS 99.1% and 100% | UACC-257 melanoma 101% and 98.5% | M14 melanoma 110% and 94.6%

O=C1C(=O)N(CN(CCCl)CCCl)c2ccccc21
inactive: NCI-H23 lung 92% | NCI-H226 lung 103% | NCI-H322M lung 107% | HOP-62 NSCLC 101% | NCI-H460 lung 105% | HOP-92 NSCLC 107% | NCI-H522 lung 77.1% | A549/ATCC NSCLC 111% | 786-0 renal 104% | COLO 205 colon 112% | DU-145 prostate 111% | K-562 leukemia 88.3% | MALME-3M melanoma 99.7% | MDA-MB-231 breast 103% | RXF 393 renal 116% | SF-268 CNS 104% | SF-539 CNS 101% | UACC-257 melanoma 112% | M14 melanoma 97.5%

N#Cc1ccc(N(CCCl)CCCl)cc1
inactive: NCI-H23 lung 96.4% | NCI-H226 lung 98.4% | NCI-H322M lung 102% | HOP-62 NSCLC 91.2% | NCI-H460 lung 106% | HOP-92 NSCLC 77.5% | NCI-H522 lung 94.6% | A549/ATCC NSCLC 96.5% | 786-0 renal 104% | COLO 205 colon 103% | DU-145 prostate 111% | K-562 leukemia 98% | MALME-3M melanoma 116% | MDA-MB-231 breast 114% | RXF 393 renal 117% | SF-268 CNS 106% | SF-295 CNS 102% | SF-539 CNS 91% | UACC-257 melanoma 104% | M14 melanoma 98.7%
